Measured values reported in PubChem BioAssay AID1195 (EPA DSSTox, 2008).

Tested on: human maximum recommended daily dose, FDA database
Assay: DSSTox (FDAMDD) FDA Maximum (Recommended) Daily Dose Database
Details: active compounds read low
Excerpt: The Food and Drug Administration (FDA) Center for Drug Evaluation and Research, Office of Pharmaceutical Science, Informatics and Computational Safety Analysis Staff's Maximum Recommended Daily Dose (FDAMDD) database contains values for over 1200 pharmaceuticals listed in Martindale: The Extra Pharmacopoeia (1973, 1983, and 1993) and The Physicians' Desk Reference (1995 and 1999). Some classes of chemicals were excluded from the FDAMDD database due to their unsuitability for most QSAR modeling programs. These were inorganic chemicals, high molecular weight polymers (>5000 Daltons), fibers, salts, mixtures of organic chemicals, and small molecules (<100 Daltons). FDAMDD is the non-proprietary portion of the database that was used in the QSAR analysis reported in the Main Citation. DSSTox FDAMDD has fewer substance records than the original MRDD Source database due to consolidation of partial structures (i.e., complexed entities) into a single record and elimination of duplicate entries. […]
Maximum recommended daily dose (or maximum recommended therapeutic dose) values were determined from pharmaceutical clinical trials that employed an oral route of exposure and daily treatments, usually for 3-12 months. […]

O=[N+]([O-])OCC(CO[N+](=O)[O-])(CO[N+](=O)[O-])CO[N+](=O)[O-]
maximum recommended daily dose (mmol/kg-bw/day) (TherapeuticCategory: vasodilator): 0.0127

O=[N+]([O-])OC[C@H](O[N+](=O)[O-])[C@@H](CO[N+](=O)[O-])O[N+](=O)[O-]
maximum recommended daily dose (mmol/kg-bw/day) (TherapeuticCategory: coronary vasodilator): 0.00553
